According to patent US20060122247A1:
Read-outs that look alike come from different tables or passages of the source.

Amino acid sequences for entries named in this document (tags omitted).
UniProt P61169, whole entry: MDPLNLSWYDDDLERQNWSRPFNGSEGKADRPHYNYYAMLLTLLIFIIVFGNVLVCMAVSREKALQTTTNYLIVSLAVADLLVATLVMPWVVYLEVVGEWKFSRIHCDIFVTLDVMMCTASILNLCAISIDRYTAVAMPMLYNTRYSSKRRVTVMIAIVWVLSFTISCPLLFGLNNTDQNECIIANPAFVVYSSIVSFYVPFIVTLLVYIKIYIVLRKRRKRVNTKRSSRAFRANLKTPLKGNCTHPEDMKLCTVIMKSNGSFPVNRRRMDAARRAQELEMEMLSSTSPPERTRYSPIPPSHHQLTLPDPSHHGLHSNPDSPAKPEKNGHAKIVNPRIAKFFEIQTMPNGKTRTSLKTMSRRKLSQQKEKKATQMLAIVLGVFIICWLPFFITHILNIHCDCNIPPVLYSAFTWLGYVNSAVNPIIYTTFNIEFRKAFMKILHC
UniProt P31652, whole entry: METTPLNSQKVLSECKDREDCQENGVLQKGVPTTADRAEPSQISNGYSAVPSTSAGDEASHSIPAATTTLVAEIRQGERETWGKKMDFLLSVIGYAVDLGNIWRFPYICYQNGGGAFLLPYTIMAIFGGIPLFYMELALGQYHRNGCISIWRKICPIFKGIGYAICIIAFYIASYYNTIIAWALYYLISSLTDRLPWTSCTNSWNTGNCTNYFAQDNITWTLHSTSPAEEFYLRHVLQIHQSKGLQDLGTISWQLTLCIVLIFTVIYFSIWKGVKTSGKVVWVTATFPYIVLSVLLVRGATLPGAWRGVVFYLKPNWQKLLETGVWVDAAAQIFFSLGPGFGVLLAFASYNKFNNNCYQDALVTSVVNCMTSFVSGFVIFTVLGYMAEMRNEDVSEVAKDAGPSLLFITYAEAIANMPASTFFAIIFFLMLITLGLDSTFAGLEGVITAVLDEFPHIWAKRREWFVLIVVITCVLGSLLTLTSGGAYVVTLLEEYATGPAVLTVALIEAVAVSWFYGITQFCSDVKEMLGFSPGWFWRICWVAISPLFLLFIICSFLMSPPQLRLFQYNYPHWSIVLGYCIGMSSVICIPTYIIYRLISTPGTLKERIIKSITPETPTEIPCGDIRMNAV
UniProt P14416, whole entry: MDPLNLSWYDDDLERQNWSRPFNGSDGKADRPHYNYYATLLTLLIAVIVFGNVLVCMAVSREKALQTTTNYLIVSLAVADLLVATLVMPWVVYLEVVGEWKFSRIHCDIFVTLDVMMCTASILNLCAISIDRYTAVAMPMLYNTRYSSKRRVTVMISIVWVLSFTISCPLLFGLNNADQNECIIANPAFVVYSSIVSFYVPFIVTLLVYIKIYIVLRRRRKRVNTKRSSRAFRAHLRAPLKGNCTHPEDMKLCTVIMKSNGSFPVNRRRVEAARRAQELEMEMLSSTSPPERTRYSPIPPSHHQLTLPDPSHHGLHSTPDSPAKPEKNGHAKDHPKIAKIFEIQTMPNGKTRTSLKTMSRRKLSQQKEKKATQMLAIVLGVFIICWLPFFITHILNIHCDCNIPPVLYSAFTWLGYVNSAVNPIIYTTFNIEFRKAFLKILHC

Key:
dopamine-D2 receptors = dopamine-D2 receptors (Rattus norvegicus, UniProt P61169); assay: In vitro affinity for dopamine-D2 receptors ([3H]-spiroperidol receptor binding assay)
Experimental: In Vitro Affinity for Dopamine-D2 Receptors
Affinity of the compounds for dopamine-D2 receptors was determined using the receptor binding assay described by 1. Creese, R. Schneider and S. H. Snyder: “[^3H]-Spiroperidol labels dopamine receptors in rat pituitary and brain”, Eur. J. Pharmacol., 46, 377-381, 1977.

serotonin reuptake sites = serotonin reuptake sites (Rattus norvegicus, UniProt P31652); assay: In vitro affinity for serotonin reuptake sites ([3H]-paroxetine binding assay)
Experimental: In Vitro Affinity for Serotonin Reuptake Sites
Affinity of the compounds for serotonin reuptake sites was determined using the receptor binding assay described by E. Habert et al.,: “Characterisation of [^3H]-paroxetine binding to rat cortical membranes”, Eur. J. Pharmacol., 118, 107-114, 1985.

[1] = target: Human dopamine D2,L receptors (Homo sapiens, UniProt P14416); assay: Inhibition of forskolin-induced [3H]-cAMP accumulation in CHO-K1 cells; settings: cloned human dopamine D2,L receptors in CHO-K1 cells, full agonist ε=1, full antagonist ε=0
Experimental: Inhibition of Forskolin-Induced [^3H]-CAMP Accumulation
The in vitro functional activity at dopamine-D2 receptors, including the intrinsic activity (ε) of the compounds of the invention was measured by their ability to inhibit forskolin-induced [^3H]-cAMP accumulation.
Human dopamine D2,L receptors were cloned in fibroblast cell line CHO-K1 cells and obtained from Dr. Grandy, Vollum Institute, Portland, Oreg., USA. CHO cells were grown in a Dulbecco's modified Eagle's medium (DMEM) culture medium, supplemented with 10% heat-inactivated fetal calf serum, 2 mM glutamine, 1 mM pyruvate, 5000 units/ml penicillin, 5000 μg/ml streptomycin and 200 μg/ml at 37° C. in 93% air/7% CO2. For incubation with test compounds, confluent cultures grown in 24 wells plates were used. Each condition or substance was routinely tested in quadruplicate. Cells were loaded with 1 μCi [^3H]-adenine in 0.5 ml medium/well. After 2 hours, cultures were washed with 0.5 ml PBS containing 1 mM of the phosphodiesterase inhibitor isobutylmethylxanthine (IBMX) and incubated for 20 min with 0.5 ml PBS containing 1 mM IBMX and forskolin with or without test compound After aspiration the reaction was stopped with 1 ml trichloroacetic acid 5% (w/v). […] Eluates were mixed with 7 ml Insta-gel and radioactivity was counted with a liquid scintillation counter. The conversion of [^3H]-ATP into [^3H]-cAMP was expressed as the ratio in percentage radioactivity in the cAMP fraction as compared to combined radioactivity in both cAMP and ATP fractions, and basal activity was subtracted to correct for spontaneous activity.
Test compounds were obtained as 10 mM stock solutions in 100% DMSO, and diluted in PBS/IBMX to final concentrations. […] From quadruplicate data counts, the mean was taken as an estimate for drug-induced, receptor-mediated effects at specified second messenger accumulation, expressed as percentage of control values (forskolin-stimulated cAMP accumulation, subtracted by basal activity). […] Antagonist potency is assessed by co-incubating cells with a fixed agonist concentration and specified antagonist concentrations. […]

SMILES: O=c1[nH]c2cccc(OCCN(CCCF)CCCC3=CCc4ccc(F)cc43)c2o1
- Dopamine-D2 binding pKi (dopamine-D2 receptors; tested form: HCl): 7.6
- 5-HT reuptake binding pKi (serotonin reuptake sites; tested form: HCl): >9.0
- Dopamine-D2 cAMP accum ε (intrinsic activity) ([1]; tested form: HCl): 0.23

SMILES: CN(CCCc1coc2ccc(F)cc12)CCOc1cccc2[nH]c(=O)oc12
- Dopamine-D2 binding pKi (dopamine-D2 receptors; tested form: HCl): 8.0
- 5-HT reuptake binding pKi (serotonin reuptake sites; tested form: HCl): 8.4
- Dopamine-D2 cAMP accum ε (intrinsic activity) ([1]; tested form: HCl): 0.20

SMILES: O=c1[nH]c2cccc(OCCNCCCOc3cccc(F)c3)c2o1
- Dopamine-D2 binding pKi (dopamine-D2 receptors): 8.4
- 5-HT reuptake binding pKi (serotonin reuptake sites): 7.4
- Dopamine-D2 cAMP accum ε (intrinsic activity) [1]: 0.39
